## AlphaSeq binding of Ab-14 light chain variants to a spike HR2 peptide

Values reported by Engelhart et al. 2022, doi:10.1038/s41597-022-01779-4 (FLAb copy).

The target is the same throughout: PDVDLGDISGINAS, from the HR2 region of SARS-CoV-2 spike.

Ab-14 is the parent antibody, in scFv form: VH, then the linker GGGGSGGGGSGGGGS, then VL. The heavy chain is unchanged in all variants.
VH: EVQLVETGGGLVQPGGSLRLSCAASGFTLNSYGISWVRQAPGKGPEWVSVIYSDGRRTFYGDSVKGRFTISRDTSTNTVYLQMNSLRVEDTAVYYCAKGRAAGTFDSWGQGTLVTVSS
VL: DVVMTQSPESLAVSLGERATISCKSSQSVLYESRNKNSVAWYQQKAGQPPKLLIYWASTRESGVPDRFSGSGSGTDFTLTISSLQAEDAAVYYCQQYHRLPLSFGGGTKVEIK

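The starting antibody came from a phage panning campaign against this peptide. Library AAYL50 holds single substitutions and randomly drawn double and triple substitutions in the CDRs. In AlphaSeq, yeast of one mating type display the scFv and yeast of the other type display the target. After mating in shaken culture at 30 °C for 16 h, diploids were selected and their barcode pairs sequenced. Each replicate has its own calibration line, from reference interactions of the BCL2 family. Each pool was mated in three replicate cultures.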

Each variant is given by its three light chain CDRs, as the data file delimits them; those of the parent are KSSQSVLYESRNKNSVA, WASTRES, QQYHRLPLS.
Every variant below is changed at S26 of the VL (sequential numbering).
Kd is apparent (estimated from mating counts) and averaged on the log scale over replicates with a signal. Smaller is tighter.
Where no diploid with the target was found in any replicate, the entry reads "not detected": below detection, most likely a poor binder, though not proof of it.
Three control strains display no target. For library AAYL50, 18% of the pairings with them gave a signal, with a median of 15 µM and one signal in twenty below 970 nM, so weak values seen in few replicates may be background.
In this assay the parent's reference entry averaged 4.4 nM; its copy inside this library read 48 nM.

| CDR-L1 | CDR-L2 | CDR-L3 | Kd | detected |
|---|---|---|---|---|
| KSTQSVLYESRSKNSVA | WASTRES | QQYHRLPFS | 75 nM | 3 of 3 |
| KSDQSVLYESRNKNSVA | WASTTES | QQYHRLPLS | not detected | 0 of 3 |
| KSWQSVLYESRNKNSVA | WASTRLS | QQYHRLPLS | 38 nM | 3 of 3 |
| KSGQSVLTESRNINSVA | WASTRES | QQYHRLPLS | not detected | 0 of 3 |
| KSLQSVLYESRNKNSWA | WASTRES | CQYHRLPLS | not detected | 0 of 3 |
| KSVQSVLYESRNKNSVA | WASTRRK | QQYHRLPLS | not detected | 0 of 3 |
| KSQQSVLYESNNKNSVA | WASTREH | QQYHRLPLS | 1.4 nM | 3 of 3 |
| KSHQSVLQESRNKNSVA | WASCRES | QQYHRLPLS | 40 nM | 3 of 3 |
| KSQQSVLYESRNKNSVA | WASTRDS | TQYHRLPLS | 8.1 µM | 3 of 3 |
| KSNQSVLYESRNKNCVA | WASTRES | QQYHCLPLS | 11 µM | 1 of 3 |
| KSDQSMLYESRNKNSVA | WASVRES | QQYHRLPLS | 1.7 nM | 3 of 3 |
| KSVQSVLPESANKNSVA | WASTRES | QQYHRLPLS | 6.6 nM | 3 of 3 |
| KSPQSVLYESRNKLSVA | WASTRES | QIYHRLPLS | 1.8 µM | 3 of 3 |
| KLRQSTLYESRNKNSVA | WASTRES | QQYHRLPLS | 180 pM | 3 of 3 |
| KSGQSVLYESRNKNSVA | CASTRES | QQYHRLPLS | 4.9 µM | 3 of 3 |
| KSTKSVLYESRNKNSVA | WASTRES | QQYHRLPLS | 20 nM | 3 of 3 |
| KSAQSVLYESRNKNSHA | WASTRES | QQYHRNPLS | not detected | 0 of 3 |
| KSKQSVLYESRNKNSVA | WASTRAS | QQYHRLPFS | 11 nM | 3 of 3 |
| KSPQSVLYESRCKNSYA | WASTRES | QQYHRLPLS | 22 µM | 2 of 3 |
| KSMQSVLYESRNKNSVA | WASTRES | QQYLRLYLS | not detected | 0 of 3 |
| KSGQSVLYESRNKNSVA | WASWRES | QQYSRLPLS | 40 nM | 3 of 3 |
| KSMQSVLYESRNKNSVA | WASTRES | VQYHRLPLS | 37 nM | 3 of 3 |
| KSKQSVLYESRHKNSPA | WASTRES | QQYHRLPLS | not detected | 0 of 3 |
| KSTQSVLYESRNKNSVA | WASTRES | DQYHRLPLS | not detected | 0 of 3 |
| KSRQSVLYHSRNKNSPA | WASTRES | QQYHRLPLS | 160 µM | 1 of 3 |
| KLIQSVLYESRNKNSVA | WASTRES | QQYHRQPLS | 2.8 µM | 2 of 3 |
| KSIQSVLYEGRNKNSVA | WASTRES | QQYHRWPLS | not detected | 0 of 3 |
| KSIQSVLYESRNKNSVA | WASTRES | QQYHRLPLA | 22 nM | 3 of 3 |

Repeated from above, the 2 best binders with a signal in all replicates:

CDR-L1	CDR-L2	CDR-L3	Kd	detected
KLRQSTLYESRNKNSVA	WASTRES	QQYHRLPLS	180 pM	3 of 3
KSQQSVLYESNNKNSVA	WASTREH	QQYHRLPLS	1.4 nM	3 of 3